# According to patent publication US7932240B2, “Phosphadiazine HCV polymerase inhibitors IV” (dated 2011):
# By UniProt entry, the sequences of proteins in these tests, tags left out. Where a name states a change or a piece, a line headed by the entry shows the natural chain unless it says otherwise.
# UniProt P54098: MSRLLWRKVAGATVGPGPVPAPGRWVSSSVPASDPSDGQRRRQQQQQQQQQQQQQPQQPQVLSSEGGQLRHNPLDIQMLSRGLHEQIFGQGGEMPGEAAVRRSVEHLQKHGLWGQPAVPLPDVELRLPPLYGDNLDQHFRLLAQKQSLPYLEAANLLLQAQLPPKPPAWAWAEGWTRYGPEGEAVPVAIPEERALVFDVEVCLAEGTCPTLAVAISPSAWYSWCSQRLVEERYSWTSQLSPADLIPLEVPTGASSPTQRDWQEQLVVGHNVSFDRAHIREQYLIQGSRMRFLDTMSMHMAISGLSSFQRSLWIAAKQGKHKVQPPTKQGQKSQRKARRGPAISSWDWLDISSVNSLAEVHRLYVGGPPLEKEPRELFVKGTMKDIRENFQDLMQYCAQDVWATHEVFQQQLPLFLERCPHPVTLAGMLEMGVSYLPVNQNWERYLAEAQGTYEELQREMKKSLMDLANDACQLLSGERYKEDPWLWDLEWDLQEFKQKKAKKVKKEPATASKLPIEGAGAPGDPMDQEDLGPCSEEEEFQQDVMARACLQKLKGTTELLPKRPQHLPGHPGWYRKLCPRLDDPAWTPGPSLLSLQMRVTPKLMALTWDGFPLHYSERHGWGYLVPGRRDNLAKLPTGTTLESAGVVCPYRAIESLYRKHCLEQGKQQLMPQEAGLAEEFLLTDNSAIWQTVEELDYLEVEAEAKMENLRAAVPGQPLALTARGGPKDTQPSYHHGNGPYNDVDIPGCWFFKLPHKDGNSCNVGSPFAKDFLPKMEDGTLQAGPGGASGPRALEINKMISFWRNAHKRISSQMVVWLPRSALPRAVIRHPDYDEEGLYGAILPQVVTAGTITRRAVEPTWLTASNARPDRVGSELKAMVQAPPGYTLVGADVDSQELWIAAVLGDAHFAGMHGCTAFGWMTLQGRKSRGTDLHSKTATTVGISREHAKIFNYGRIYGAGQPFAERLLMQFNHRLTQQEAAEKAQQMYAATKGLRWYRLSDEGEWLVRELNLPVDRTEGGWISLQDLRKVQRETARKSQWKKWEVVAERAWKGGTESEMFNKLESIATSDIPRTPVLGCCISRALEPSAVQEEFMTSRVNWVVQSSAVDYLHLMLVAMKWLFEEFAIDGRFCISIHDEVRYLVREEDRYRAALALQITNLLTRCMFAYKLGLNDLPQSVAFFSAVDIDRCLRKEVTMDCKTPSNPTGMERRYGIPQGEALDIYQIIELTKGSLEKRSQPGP
# UniProt P09884: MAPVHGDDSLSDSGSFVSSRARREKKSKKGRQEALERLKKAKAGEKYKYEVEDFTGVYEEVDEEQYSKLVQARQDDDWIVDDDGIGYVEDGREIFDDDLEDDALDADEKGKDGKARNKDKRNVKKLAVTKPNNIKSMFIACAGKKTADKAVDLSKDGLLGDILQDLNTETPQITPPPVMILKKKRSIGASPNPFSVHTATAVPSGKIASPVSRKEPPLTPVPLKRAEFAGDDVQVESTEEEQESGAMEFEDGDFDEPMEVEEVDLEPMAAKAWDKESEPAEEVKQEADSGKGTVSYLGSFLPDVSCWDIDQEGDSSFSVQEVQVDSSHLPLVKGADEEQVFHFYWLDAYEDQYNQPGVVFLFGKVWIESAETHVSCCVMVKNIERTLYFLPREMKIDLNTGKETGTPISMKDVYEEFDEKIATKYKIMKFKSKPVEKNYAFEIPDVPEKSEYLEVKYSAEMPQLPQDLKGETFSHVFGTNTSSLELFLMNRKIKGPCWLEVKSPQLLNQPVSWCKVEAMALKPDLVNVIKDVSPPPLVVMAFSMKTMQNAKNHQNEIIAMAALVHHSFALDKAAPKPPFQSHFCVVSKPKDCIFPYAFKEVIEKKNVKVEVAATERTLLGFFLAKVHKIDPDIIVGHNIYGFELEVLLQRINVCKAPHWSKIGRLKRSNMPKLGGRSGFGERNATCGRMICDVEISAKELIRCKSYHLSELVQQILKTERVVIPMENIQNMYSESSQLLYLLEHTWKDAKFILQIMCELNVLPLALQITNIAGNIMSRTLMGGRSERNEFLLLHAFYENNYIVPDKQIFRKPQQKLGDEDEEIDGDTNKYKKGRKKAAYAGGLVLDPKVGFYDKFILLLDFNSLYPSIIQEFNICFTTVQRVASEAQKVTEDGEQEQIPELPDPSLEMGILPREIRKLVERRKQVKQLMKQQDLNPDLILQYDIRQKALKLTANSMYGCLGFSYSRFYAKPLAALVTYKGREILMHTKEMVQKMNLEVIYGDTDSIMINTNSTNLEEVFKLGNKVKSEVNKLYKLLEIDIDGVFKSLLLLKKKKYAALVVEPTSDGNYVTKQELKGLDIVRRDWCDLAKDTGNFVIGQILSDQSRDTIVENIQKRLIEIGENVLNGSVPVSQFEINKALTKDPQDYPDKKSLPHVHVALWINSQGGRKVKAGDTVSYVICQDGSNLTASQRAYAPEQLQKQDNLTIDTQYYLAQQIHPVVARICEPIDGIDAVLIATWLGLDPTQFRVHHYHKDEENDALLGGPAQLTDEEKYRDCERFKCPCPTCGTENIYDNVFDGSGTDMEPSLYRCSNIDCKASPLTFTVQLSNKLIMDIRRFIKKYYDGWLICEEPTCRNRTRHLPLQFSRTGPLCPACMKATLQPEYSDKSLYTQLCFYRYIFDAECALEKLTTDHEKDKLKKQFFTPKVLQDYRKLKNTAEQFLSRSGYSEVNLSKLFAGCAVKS
# Tests used:
# [1] = target: human DNA polymerase gamma (Homo sapiens, UniProt P54098); test: Human cellular DNA polymerase gamma assay; conditions: read-out: Mean IC50 Values (μM) ± Standard Deviation, human DNA polymerase gamma; Table 9; N = 2
# [2] = target: human DNA polymerase alpha (Homo sapiens, UniProt P09884); test: Human cellular DNA polymerase alpha assay; conditions: read-out: Mean IC50 Values (μM) ± Standard Deviation, human DNA polymerase alpha; Table 9; N = 2
substance,measurement,setting,value
Actinomycin D,IC50,[1],10.8 µM
same,IC50,[2],22.5 µM
